Measured values taken from US6818617B1 (Temple University- Of The Commonwealth System of Higher …, priority 1997, dated 2004).

Amino acid sequences for entries named in this document (tags omitted). Residues count along the entry.
UniProt P13612, 34-1032: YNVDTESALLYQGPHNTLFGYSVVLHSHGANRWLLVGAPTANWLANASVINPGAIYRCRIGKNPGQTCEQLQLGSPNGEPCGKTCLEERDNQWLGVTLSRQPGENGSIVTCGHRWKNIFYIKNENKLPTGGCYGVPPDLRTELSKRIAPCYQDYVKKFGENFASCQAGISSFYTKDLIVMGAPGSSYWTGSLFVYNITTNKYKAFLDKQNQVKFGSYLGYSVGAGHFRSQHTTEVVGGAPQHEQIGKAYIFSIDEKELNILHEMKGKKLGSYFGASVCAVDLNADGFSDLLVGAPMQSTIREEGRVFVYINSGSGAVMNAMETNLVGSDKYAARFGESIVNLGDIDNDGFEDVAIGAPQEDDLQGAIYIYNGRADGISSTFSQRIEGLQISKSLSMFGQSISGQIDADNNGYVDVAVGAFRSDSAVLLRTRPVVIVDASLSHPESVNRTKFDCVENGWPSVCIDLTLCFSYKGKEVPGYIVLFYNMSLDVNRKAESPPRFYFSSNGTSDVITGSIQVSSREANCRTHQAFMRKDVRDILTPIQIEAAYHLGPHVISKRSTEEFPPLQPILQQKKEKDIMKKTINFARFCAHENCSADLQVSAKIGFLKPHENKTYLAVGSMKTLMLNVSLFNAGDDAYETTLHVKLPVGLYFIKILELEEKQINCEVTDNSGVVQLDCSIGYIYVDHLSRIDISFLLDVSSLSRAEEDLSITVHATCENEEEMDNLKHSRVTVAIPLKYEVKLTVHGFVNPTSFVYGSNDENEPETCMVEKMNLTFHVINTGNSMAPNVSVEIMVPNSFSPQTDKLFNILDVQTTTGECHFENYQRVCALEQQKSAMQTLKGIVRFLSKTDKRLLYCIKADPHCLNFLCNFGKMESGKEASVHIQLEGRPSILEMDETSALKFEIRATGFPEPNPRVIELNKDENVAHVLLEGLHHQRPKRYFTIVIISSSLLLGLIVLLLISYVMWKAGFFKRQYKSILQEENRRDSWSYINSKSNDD

Biological target: T1, α4β1 (Homo sapiens, UniProt P05556+P13612)
T1 construct: host or cells: Jurkat
Experiment: Jurkat cell adhesion to immobilized VCAM-1
Format: cell-based
Description: Adhesion of cultured cells labeled with 5-chloromethylfluorescein diacetate (CMFDA) was performed as described earlier (Marcinkiewicz et al., Blood 90:1565-1575 (1997)). […] Wells were blocked by 1% BSA in HBSS buffer. Cells were labeled with fluorescein by incubation with 12.5 AM CMFDA in HBSS buffer containing 1% BSA at 37° C. by 15 min. Unbound label was removed by washing with the same buffer. Labeled cells (1×10^5 per sample) were added to the well in the presence or absence of inhibitors and incubated at 37° C. for 30 min. Unbound cells were removed by aspiration, the wells were washed and bound cells were lysed by adding 0.5% Triton X-100. In parallel the standard curve was prepared in the same plate from known concentrations of labelled cells. The plate was read using a Cytofluor 2350 fluorescence plate reader (Millipore, Bedford, Mass.) at 485 nm EX(excitation) filter and 530 nm (emmision) filter.
The cell adhesion assay (as described in Example 1) was used to study the inhibitory effect of the eluted fractions on Jurkat cell adhesion to immobilized VCAM-1 and on K562 cell adhesion to fibronectin. […]
The effect of each peptide on cell adhesion was determined as described above. […] Cells that attached to the plates were lysed with detergent, and fluorescence intensity was measured. Percent inhibition was measured at each concentration and IC50 was determined.

CSCC[C@H](N)C(=O)N[C@@H](CC(C)C)C(=O)N[C@@H](CC(=O)O)C(=O)NCC(=O)O [MLDG]
IC50: 5 mM
